Assay results published in US20150368338A1 (Janssen / Centocor, published 2015).

B1: IFWM3385 (antibody, IgG1, V domains shown)
VH: EVQLVQSGAEVKKPGESLKISCKGSGYSFTSYWIGWVRQMPGKGLEWMGIIDPSDSDTRYSPSFQGQVTISADKSISTAYLQWSSLKASDTAMYYCARHPGLAWAPDFDYWGQGTLVTVSS
VL: DIQMTQSPSSLSASVGDRVTITCRASQSIGDFLNWYQQKPGKAPKLLIYFASSLQSGVPSRFSGSGSGTDFTLTISSLQPEDFATYYCQQALDFPLTFGQGTKVEIK
notes: mAb; IgG1/kappa said of the parent and of selected mAbs; also called IFWB3120
B2: IFWM3307 (antibody, IgG1, V domains shown)
VH: EVQLVQSGAEVKKPGESLKISCKGSGYSFTSYWIGWVRQMPGKGLEWMGIIDPSDSDTRYSPSFQGQVTISADKSISTAYLQWSSLKASDTAMYYCARHPGLNWAPDFDYWGQGTLVTVSS
VL: DIQMTQSPSSLSASVGDRVTITCRASQSIGDFLNWYQQKPGKAPKLLIYFASSLQSGVPSRFSGSGSGTDFTLTISSLQPEDFATYYCQQALDFPLTFGQGTKVEIK
B3: IFWM3322 (antibody, IgG1, V domains shown)
VH: EVQLVQSGAEVKKPGESLKISCKGSGYSFTSYWIGWVRQMPGKGLEWMGIIDPSDSDTRYSPSFQGQVTISADKSISTAYLQWSSLKASDTAMYYCARHPGLNWAPDFDYWGQGTLVTVSS
VL: DIQMTQSPSSLSASVGDRVTITCRASQSIADFLNWYQQKPGKAPKLLIYFASSLQSGVPSRFSGSGSGTDFTLTISSLQPEDFATYYCQQSHSFPLTFGQGTKVEIK
B4: IFWM3328 (antibody, IgG1, V domains shown)
VH: EVQLVQSGAEVKKPGESLKISCKGSGYSFTSYWIGWVRQMPGKGLEWMGIIDPSDSDTRYSPSFQGQVTISADKSISTAYLQWSSLKASDTAMYYCARHPGLNWAPDFDYWGQGTLVTVSS
VL: DIQMTQSPSSLSASVGDRVTITCRASQSINNLNWYQQKPGKAPKLLIYWASSLQSGVPSRFSGSGSGTDFTLTISSLQPEDFATYYCQQGYDTPFTFGQGTKVEIK
B5: IFWM3308 (antibody, IgG1, V domains shown)
VH: EVQLVQSGAEVKKPGESLKISCKGSGYSFTSYWIGWVRQMPGKGLEWMGIIDPSDSDTRYSPSFQGQVTISADKSISTAYLQWSSLKASDTAMYYCARHPGLNWAPDFDYWGQGTLVTVSS
VL: DIQMTQSPSSLSASVGDRVTITCRASQSIAEFLNWYQQKPGKAPKLLIYFASSLQSGVPSRFSGSGSGTDFTLTISSLQPEDFATYYCQQSIDFPLTFGQGTKVEIK
B6: IFWM3320 (antibody, IgG1, V domains shown)
VH: EVQLVQSGAEVKKPGESLKISCKGSGYSFTSYWIGWVRQMPGKGLEWMGIIDPSDSDTRYSPSFQGQVTISADKSISTAYLQWSSLKASDTAMYYCARHPGLNWAPDFDYWGQGTLVTVSS
VL: DIQMTQSPSSLSASVGDRVTITCRASQSINGVLNWYQQKPGKAPKLLIYFASSLQSGVPSRFSGSGSGTDFTLTISSLQPEDFATYYCQQSHDFPLTFGQGTKVEIK
B7: IFWM3423 (antibody, IgG1, V domains shown)
VH: EVQLVQSGAEVKKPGESLKISCKGSGYSFTSYWIGWVRQMPGKGLEWMGIIDPSDSDTRYSPSFQGQVTISADKSISTAYLQWSSLKASDTAMYYCARHPGLAWAPDFDYWGQGTLVTVSS
VL: DIQMTQSPSSLSASVGDRVTITCRASQSIDGFLNWYQQKPGKAPKLLIYFASSLQSGVPSRFSGSGSGTDFTLTISSLQPEDFATYYCQQSYDLPITFGQGTKVEIK
B8: IFWM3405 (antibody, IgG1, V domains shown)
VH: EVQLVQSGAEVKKPGESLKISCKGSGYSFTSYWIGWVRQMPGKGLEWMGIIDPSDSDTRYSPSFQGQVTISADKSISTAYLQWSSLKASDTAMYYCARHPGLAWAPDFDYWGQGTLVTVSS
VL: DIQMTQSPSSLSASVGDRVTITCRASQSIANNNLNWYQQKPGKAPKLLIHWASSLQSGVPSRFSGSGSGTDFTLTISSLQPEDFATYYCQQGYDTPFTFGQGTKVEIK
notes: mAb; IgG1/kappa said of the parent and of selected mAbs; also called IFWB3140
B9: IFWM3314 (antibody, IgG1, V domains shown)
VH: EVQLVQSGAEVKKPGESLKISCKGSGYSFTSYWIGWVRQMPGKGLEWMGIIDPSDSDTRYSPSFQGQVTISADKSISTAYLQWSSLKASDTAMYYCARHPGLNWAPDFDYWGQGTLVTVSS
VL: DIQMTQSPSSLSASVGDRVTITCRASQSIDRALNWYQQKPGKAPKLLIYFASSLQSGVPSRFSGSGSGTDFTLTISSLQPEDFATYYCQQSFDFPLTFGQGTKVEIK
B10: IFWM3304 (antibody, IgG1, V domains shown)
VH: EVQLVQSGAEVKKPGESLKISCKGSGYSFTSYWIGWVRQMPGKGLEWMGIIDPSDSDTRYSPSFQGQVTISADKSISTAYLQWSSLKASDTAMYYCARHPGLNWAPDFDYWGQGTLVTVSS
VL: DIQMTQSPSSLSASVGDRVTITCRASQSIGSALNWYQQKPGKAPKLLIYFASSLQSGVPSRFSGSGSGTDFTLTISSLQPEDFATYYCQQSYDFPLTFGQGTKVEIK
B11: IFWM3310 (antibody, IgG1, V domains shown)
VH: EVQLVQSGAEVKKPGESLKISCKGSGYSFTSYWIGWVRQMPGKGLEWMGIIDPSDSDTRYSPSFQGQVTISADKSISTAYLQWSSLKASDTAMYYCARHPGLNWAPDFDYWGQGTLVTVSS
VL: DIQMTQSPSSLSASVGDRVTITCRASQSIGKSLNWYQQKPGKAPKLLIYFASSLQSGVPSRFSGSGSGTDFTLTISSLQPEDFATYYCQQSYDFPLTFGQGTKVEIK
B12: IFWM3321 (antibody, IgG1, V domains shown)
VH: EVQLVQSGAEVKKPGESLKISCKGSGYSFTSYWIGWVRQMPGKGLEWMGIIDPSDSDTRYSPSFQGQVTISADKSISTAYLQWSSLKASDTAMYYCARHPGLNWAPDFDYWGQGTLVTVSS
VL: DIQMTQSPSSLSASVGDRVTITCRASQSIDGALNWYQQKPGKAPKLLIYFASSLQSGVPSRFSGSGSGTDFTLTISSLQPEDFATYYCQQAYDFPLTFGQGTKVEIK
B13: IFWM3331 (antibody, IgG1, V domains shown)
VH: EVQLVQSGAEVKKPGESLKISCKGSGYSFTSYWIGWVRQMPGKGLEWMGIIDPSDSDTRYSPSFQGQVTISADKSISTAYLQWSSLKASDTAMYYCARHPGLNWAPDFDYWGQGTLVTVSS
VL: DIQMTQSPSSLSASVGDRVTITCRASQSIDNSYLNWYQQKPGKAPKLLIYGASSLQSGVPSRFSGSGSGTDFTLTISSLQPEDFATYYCQQGWDWPLTFGQGTKVEIK
B14: IFWM3312 (antibody, V domains shown)
VH: EVQLVQSGAEVKKPGESLKISCKGSGYSFTSYWIGWVRQMPGKGLEWMGIIDPSDSDTRYSPSFQGQVTISADKSISTAYLQWSSLKASDTAMYYCARHPGLNWAPDFDYWGQGTLVTVSS
VL: DIQMTQSPSSLSASVGDRVTITCRASQSIDGALNWYQQKPGKAPKLLIYFASSLQSGVPSRFSGSGSGTDFTLTISSLQPEDFATYYCQQSFDFPLTFGQGTKVEIK
notes: VH IFWH591, VL IFWL1010; converted mAb; also called IFWB3047
B15: IFWM3323 (antibody, V domains shown)
VH: EVQLVQSGAEVKKPGESLKISCKGSGYSFTSYWIGWVRQMPGKGLEWMGIIDPSDSDTRYSPSFQGQVTISADKSISTAYLQWSSLKASDTAMYYCARHPGLNWAPDFDYWGQGTLVTVSS
VL: DIQMTQSPSSLSASVGDRVTITCRASQSITNHLNWYQQKPGKAPKLLIYFASSLQSGVPSRFSGSGSGTDFTLTISSLQPEDFATYYCQQAHNFPLTFGQGTKVEIK
notes: VH IFWH591, VL IFWL1053; converted mAb; also called IFWB3058
B16: IFWM3400 (antibody, IgG1, V domains shown)
VH: EVQLVQSGAEVKKPGESLKISCKGSGYSFTSYWIGWVRQMPGKGLEWMGIIDPSDSDTRYSPSFQGQVTISADKSISTAYLQWSSLKASDTAMYYCARHPGLAWAPDFDYWGQGTLVTVSS
VL: DIQMTQSPSSLSASVGDRVTITCRASQSIADFLNWYQQKPGKAPKLLIYFASSLQSGVPSRFSGSGSGTDFTLTISSLQPEDFATYYCQQSHSFPLTFGQGTKVEIK
notes: mAb; IgG1/kappa said of the parent and of selected mAbs; also called IFWB3135
B17: IFWM3416 (antibody, IgG1, V domains shown)
VH: EVQLVQSGAEVKKPGESLKISCKGSGYSFTSYWIGWVRQMPGKGLEWMGIIDPSDSDTRYSPSFQGQVTISADKSISTAYLQWSSLKASDTAMYYCARHPGLAWAPDFDYWGQGTLVTVSS
VL: DIQMTQSPSSLSASVGDRVTITCRASQSIRNTNLNWYQQKPGKAPKLLIHWASSLQSGVPSRFSGSGSGTDFTLTISSLQPEDFATYYCQQGYDTPFTFGQGTKVEIK
notes: mAb; IgG1/kappa said of the parent and of selected mAbs; also called IFWB3151
B18: IFWM3313 (antibody, V domains shown)
VH: EVQLVQSGAEVKKPGESLKISCKGSGYSFTSYWIGWVRQMPGKGLEWMGIIDPSDSDTRYSPSFQGQVTISADKSISTAYLQWSSLKASDTAMYYCARHPGLNWAPDFDYWGQGTLVTVSS
VL: DIQMTQSPSSLSASVGDRVTITCRASQSINNFLNWYQQKPGKAPKLLIYFASSLQSGVPSRFSGSGSGTDFTLTISSLQPEDFATYYCQQSFNLPITFGQGTKVEIK
notes: VH IFWH591, VL IFWL1013; converted mAb; also called IFWB3048
B19: IFWM3399 (antibody, IgG1, V domains shown)
VH: EVQLVQSGAEVKKPGESLKISCKGSGYSFTSYWIGWVRQMPGKGLEWMGIIDPSDSDTRYSPSFQGQVTISADKSISTAYLQWSSLKASDTAMYYCARHPGLAWAPDFDYWGQGTLVTVSS
VL: DIQMTQSPSSLSASVGDRVTITCRASQSIDGALNWYQQKPGKAPKLLIYFASSLQSGVPSRFSGSGSGTDFTLTISSLQPEDFATYYCQQAYDFPLTFGQGTKVEIK
notes: mAb; IgG1/kappa said of the parent and of selected mAbs; also called IFWB3134
B20: IFWM3410 (antibody, IgG1, V domains shown)
VH: EVQLVQSGAEVKKPGESLKISCKGSGYSFTSYWIGWVRQMPGKGLEWMGIIDPSDSDTRYSPSFQGQVTISADKSISTAYLQWSSLKASDTAMYYCARHPGLAWAPDFDYWGQGTLVTVSS
VL: DIQMTQSPSSLSASVGDRVTITCRASQSIANTNLNWYQQKPGKAPKLLIHWASSLQSGVPSRFSGSGSGTDFTLTISSLQPEDFATYYCQQWYDNPLTFGQGTKVEIK
notes: mAb; IgG1/kappa said of the parent and of selected mAbs; also called IFWB3145

Tests used:
IFN-αB2 [1] = target: T1, IFN-αB2 (human, UniProt P32881 24-189); experiment: cell-based or functional assay
IFN-αB2 [2] = target: T1, IFN-αB2; experiment: ProteOn SPR, cell supernatant;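 note: each binding measurement used just a single antigen concentration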
IFN-αC = target: T2, IFN-αC (human, UniProt P01566 24-189); experiment: ProteOn, one antigen concentration
T2 construct: also called IFN-α10; alpha C

IFN-αB2 [3] = target: T3, IFN-αB2 (human, UniProt P32881 24-189); experiment: ProteOn, one antigen concentration
T3 construct: also called IFN-α8; IFN alpha B2

Row | Binder | IC50, ISRE assay (IFN-αB2 [1]) [nM] | Kd (IFN-αB2 [2]) [nM] | Kd (IFN-αC) [nM] | Kd (IFN-αB2 [3]) [nM]
1 | B1 | 0.158 | 0.019 | – | –
2 | B2 | 0.247 | – | – | –
3 | B3 | 0.121 | – | – | –
4 | B4 | 0.52 | – | – | –
5 | B5 | 0.23 | – | – | –
6 | B6 | 0.018 | – | – | –
7 | B7 | 0.011 | – | – | –
8 | B8 | 0.099 | 0.017 | – | –
9 | B9 | 0.033 | – | – | –
10 | B10 | 0.039 | – | – | –
11 | B11 | 0.043 | – | – | –
12 | B12 | 0.087 | – | – | –
13 | B13 | 0.08 | – | – | –
14 | B14 | – | – | 0.022 | 0.022
15 | B15 | – | – | 0.077 | 0.077
16 | B16 | 0.086 | 0.032 | – | –
17 | B17 | 0.25 | 0.037 | – | –
18 | B18 | – | – | 0.074 | 0.074
19 | B19 | 0.062 | 0.036 | – | –
20 | B20 | 0.211 | 0.059 | – | –
